Experimental data as given in ChEMBL document CHEMBL4689842, “EUbOPEN Chemogenomics Library wave 1” (2021).
Where “and” joins values, the source holds several entries; their conditions need not be identical. Identical values can stand only once. Only a part of the results on these compounds is given; other tests are left out.

Tests used:
Assay type in all cases: toxicity, cell-based
U2OS [1] = assay: Incucyte cell viability with U2OS; details: human, 10 µM; note: filed as whole numbers so only -1 and 0 and 1 occur
Fibroblast [2] = assay: Multiplex assay against human fibroblast
Fibroblast [3] = assay: Incucyte cell viability with human fibroblast; details: 10 µM; note: filed as whole numbers so only -1 and 0 and 1 occur
U2OS [4] = assay: Multiplex assay against U2OS; details: human

Compound `CC(=O)N1CCc2ccc(N(C(=O)/C=C/c3cccc(C#N)c3)C3CCN(CCC4CCCC4)CC3)cc21` has a Growth Rate (U2OS [1]; 0 h) of 0, a Growth Rate (U2OS [1]; 6 h) of 1 and a Growth Rate (U2OS [1]; 12 h) of 1. For the same compound, the Growth Rate (U2OS [1]; 18 h) was 1, the Growth Rate (U2OS [1]; 24 h) was 1 and the Population Apoptotic (%) (Fibroblast [2]; 0 h, 1 µM) was 69% and 62%. The Population Fragmented Nuclei (%) (Fibroblast [2]; 0 h, 1 µM) was 31% and 17%, the Population Hoechst High Intensity Objects (%) (Fibroblast [2]; 0 h, 1 µM) was 12% and 6% and the Population Membrane Permeable-Phenotype (%) (Fibroblast [2]; 0 h, 1 µM) was 3%. For the same compound, the Population Mitochondria Different-Phenotype (%) (Fibroblast [2]; 0 h, 1 µM) was 34% and 26%, the Population Mitotic Cells (%) (Fibroblast [2]; 0 h, 1 µM) was 30% and 37% and the Population Normal (%) (Fibroblast [2]; 0 h, 1 µM) was 87% and 93%. The Population Tubulin-Different-Phenotype (%) (Fibroblast [2]; 0 h, 1 µM) was 20% and 24%, the Population Apoptotic (%) (Fibroblast [2]; 0 h, 10 µM) was 70% and 45% and the Population Hoechst High Intensity Objects (%) (Fibroblast [2]; 0 h, 10 µM) was 23% and 12%. For the same compound, the Population Mitochondria Different-Phenotype (%) (Fibroblast [2]; 0 h, 10 µM) was 17% and 21%, the Population Mitotic Cells (%) (Fibroblast [2]; 0 h, 10 µM) was 29% and 54% and the Population Normal (%) (Fibroblast [2]; 0 h, 10 µM) was 76% and 87%. The Population Pyknosed Nuclei (%) (Fibroblast [2]; 0 h, 10 µM) was 37% and 19%, the Total Cell Count (Fibroblast [2]; 0 h, 10 µM) was 108 and 132 and the Population Apoptotic (%) (Fibroblast [2]; 12 h, 1 µM) was 70% and 50%. For the same compound, the Population Fragmented Nuclei (%) (Fibroblast [2]; 12 h, 1 µM) was 18% and 12%, the Population Hoechst High Intensity Objects (%) (Fibroblast [2]; 12 h, 1 µM) was 6% and 9% and the Population Mitochondria Different-Phenotype (%) (Fibroblast [2]; 12 h, 1 µM) was 27% and 18%. For the same compound, the Population Mitotic Cells (%) (Fibroblast [2]; 12 h, 1 µM) was 29% and 50%, the Population Normal (%) (Fibroblast [2]; 12 h, 1 µM) was 93% and 90% and the Total Cell Count (Fibroblast [2]; 12 h, 1 µM) was 163 and 100. The Population Apoptotic (%) (Fibroblast [2]; 12 h, 10 µM) was 66%, the Population Membrane Permeable-Phenotype (%) (Fibroblast [2]; 12 h, 10 µM) was 16% and 24% and the Population Mitotic Cells (%) (Fibroblast [2]; 12 h, 10 µM) was 33%. For the same compound, the Population Normal (%) (Fibroblast [2]; 12 h, 10 µM) was 83% and 93%, the Population Pyknosed Nuclei (%) (Fibroblast [2]; 12 h, 10 µM) was 29% and 19% and the Total Cell Count (Fibroblast [2]; 12 h, 10 µM) was 86 and 54. For the same compound, the Population Apoptotic (%) (Fibroblast [2]; 24 h, 1 µM) was 59% and 62%, the Population Healthy Nuclei (%) (Fibroblast [2]; 24 h, 1 µM) was 52% and 75% and the Population Hoechst High Intensity Objects (%) (Fibroblast [2]; 24 h, 1 µM) was 15% and 11%. For the same compound, the Population Mitotic Cells (%) (Fibroblast [2]; 24 h, 1 µM) was 40% and 37%, the Population Normal (%) (Fibroblast [2]; 24 h, 1 µM) was 84% and 88% and the Population Pyknosed Nuclei (%) (Fibroblast [2]; 24 h, 1 µM) was 20% and 15%. The Total Cell Count (Fibroblast [2]; 24 h, 1 µM) was 184 and 125, the Population Apoptotic (%) (Fibroblast [2]; 24 h, 10 µM) was 78% and 76% and the Population Membrane Permeable-Phenotype (%) (Fibroblast [2]; 24 h, 10 µM) was 20% and 22%. The Population Mitotic Cells (%) (Fibroblast [2]; 24 h, 10 µM) was 21% and 23%, the Population Normal (%) (Fibroblast [2]; 24 h, 10 µM) was 76% and 95% and the Population Pyknosed Nuclei (%) (Fibroblast [2]; 24 h, 10 µM) was 20%. The Population Tubulin-Different-Phenotype (%) (Fibroblast [2]; 24 h, 10 µM) was 91% and 88%, the Total Cell Count (Fibroblast [2]; 24 h, 10 µM) was 89 and 60 and the Population Fragmented Nuclei (%) (Fibroblast [2]; 48 h, 1 µM) was 49% and 28%. The Population Hoechst High Intensity Objects (%) (Fibroblast [2]; 48 h, 1 µM) was 15% and 12%, the Population Membrane Permeable-Phenotype (%) (Fibroblast [2]; 48 h, 1 µM) was 15% and 12% and the Population Normal (%) (Fibroblast [2]; 48 h, 1 µM) was 84% and 87%. For the same compound, the Population Tubulin-Different-Phenotype (%) (Fibroblast [2]; 48 h, 1 µM) was 78% and 53%, the Population Fragmented Nuclei (%) (Fibroblast [2]; 48 h, 10 µM) was 54% and the Population Healthy Nuclei (%) (Fibroblast [2]; 48 h, 10 µM) was 45% and 37%. For the same compound, the Population Mitotic Cells (%) (Fibroblast [2]; 48 h, 10 µM) was 0%, the Population Normal (%) (Fibroblast [2]; 48 h, 10 µM) was 84% and 63% and the Population Tubulin-Different-Phenotype (%) (Fibroblast [2]; 48 h, 10 µM) was 96% and 80%. It also gave a Growth Rate (Fibroblast [3]; 0 h) of 0, a Growth Rate (Fibroblast [3]; 12 h) of 0 and a Growth Rate (Fibroblast [3]; 18 h) of 0. The Growth Rate (Fibroblast [3]; 24 h) was 0, the Population Apoptotic (%) (U2OS [4]; 0 h, 1 µM) was 18% and 33% and the Population Fragmented Nuclei (%) (U2OS [4]; 0 h, 1 µM) was 10% and 12%. For the same compound, the Population Healthy Nuclei (%) (U2OS [4]; 0 h, 1 µM) was 69% and 74%, the Population Hoechst High Intensity Objects (%) (U2OS [4]; 0 h, 1 µM) was 16% and 11% and the Population Mitochondria Different-Phenotype (%) (U2OS [4]; 0 h, 1 µM) was 24% and 17%. The Population Mitotic Cells (%) (U2OS [4]; 0 h, 1 µM) was 81% and 66%, the Population Normal (%) (U2OS [4]; 0 h, 1 µM) was 83% and 88% and the Population Pyknosed Nuclei (%) (U2OS [4]; 0 h, 1 µM) was 20% and 12%. For the same compound, the Population Tubulin-Different-Phenotype (%) (U2OS [4]; 0 h, 1 µM) was 9% and 17%, the Total Cell Count (U2OS [4]; 0 h, 1 µM) was 161 and 84 and the Population Fragmented Nuclei (%) (U2OS [4]; 0 h, 10 µM) was 9% and 12%. For the same compound, the Population Healthy Nuclei (%) (U2OS [4]; 0 h, 10 µM) was 74% and 77%, the Population Hoechst High Intensity Objects (%) (U2OS [4]; 0 h, 10 µM) was 5% and 6% and the Population Mitotic Cells (%) (U2OS [4]; 0 h, 10 µM) was 75% and 100%. For the same compound, the Population Normal (%) (U2OS [4]; 0 h, 10 µM) was 94% and 93%, the Population Pyknosed Nuclei (%) (U2OS [4]; 0 h, 10 µM) was 16% and 9% and the Population Tubulin-Different-Phenotype (%) (U2OS [4]; 0 h, 10 µM) was 9% and 16%. The Population Apoptotic (%) (U2OS [4]; 12 h, 1 µM) was 37% and 50%, the Population Fragmented Nuclei (%) (U2OS [4]; 12 h, 1 µM) was 10% and 12% and the Population Healthy Nuclei (%) (U2OS [4]; 12 h, 1 µM) was 72% and 75%. The Population Hoechst High Intensity Objects (%) (U2OS [4]; 12 h, 1 µM) was 8% and 9%, the Population Mitotic Cells (%) (U2OS [4]; 12 h, 1 µM) was 62% and 50% and the Population Normal (%) (U2OS [4]; 12 h, 1 µM) was 91% and 90%. For the same compound, the Population Pyknosed Nuclei (%) (U2OS [4]; 12 h, 1 µM) was 17% and 12%, the Total Cell Count (U2OS [4]; 12 h, 1 µM) was 198 and 100 and the Population Apoptotic (%) (U2OS [4]; 12 h, 10 µM) was 66% and 74%. For the same compound, the Population Fragmented Nuclei (%) (U2OS [4]; 12 h, 10 µM) was 6% and 10%, the Population Healthy Nuclei (%) (U2OS [4]; 12 h, 10 µM) was 73% and 70% and the Population Hoechst High Intensity Objects (%) (U2OS [4]; 12 h, 10 µM) was 6% and 3%. The Population Mitochondria Different-Phenotype (%) (U2OS [4]; 12 h, 10 µM) was 93% and 99%, the Population Mitotic Cells (%) (U2OS [4]; 12 h, 10 µM) was 33% and 25% and the Population Normal (%) (U2OS [4]; 12 h, 10 µM) was 93% and 96%. For the same compound, the Population Pyknosed Nuclei (%) (U2OS [4]; 12 h, 10 µM) was 19%, the Population Tubulin-Different-Phenotype (%) (U2OS [4]; 12 h, 10 µM) was 100% and the Population Apoptotic (%) (U2OS [4]; 24 h, 1 µM) was 58% and 62%. The Population Fragmented Nuclei (%) (U2OS [4]; 24 h, 1 µM) was 7% and 9%, the Population Healthy Nuclei (%) (U2OS [4]; 24 h, 1 µM) was 72% and 75% and the Population Hoechst High Intensity Objects (%) (U2OS [4]; 24 h, 1 µM) was 7% and 11%. The Population Mitotic Cells (%) (U2OS [4]; 24 h, 1 µM) was 41% and 37%, the Population Normal (%) (U2OS [4]; 24 h, 1 µM) was 92% and 88% and the Population Pyknosed Nuclei (%) (U2OS [4]; 24 h, 1 µM) was 20% and 15%. The Total Cell Count (U2OS [4]; 24 h, 1 µM) was 226 and 125, the Population Apoptotic (%) (U2OS [4]; 24 h, 10 µM) was 76% and 75% and the Population Fragmented Nuclei (%) (U2OS [4]; 24 h, 10 µM) was 12% and 14%. For the same compound, the Population Healthy Nuclei (%) (U2OS [4]; 24 h, 10 µM) was 67% and 60%, the Population Hoechst High Intensity Objects (%) (U2OS [4]; 24 h, 10 µM) was 4% and the Population Mitochondria Different-Phenotype (%) (U2OS [4]; 24 h, 10 µM) was 97% and 100%. For the same compound, the Population Mitotic Cells (%) (U2OS [4]; 24 h, 10 µM) was 23% and 25%, the Population Normal (%) (U2OS [4]; 24 h, 10 µM) was 95% and 96% and the Population Pyknosed Nuclei (%) (U2OS [4]; 24 h, 10 µM) was 20% and 25%. For the same compound, the Population Tubulin-Different-Phenotype (%) (U2OS [4]; 24 h, 10 µM) was 88% and 100%, the Population Apoptotic (%) (U2OS [4]; 48 h, 1 µM) was 50% and 57% and the Population Fragmented Nuclei (%) (U2OS [4]; 48 h, 1 µM) was 8% and 11%. The Population Healthy Nuclei (%) (U2OS [4]; 48 h, 1 µM) was 82% and 69%, the Population Hoechst High Intensity Objects (%) (U2OS [4]; 48 h, 1 µM) was 8% and 6% and the Population Membrane Permeable-Phenotype (%) (U2OS [4]; 48 h, 1 µM) was 9% and 6%. The Population Mitochondria Different-Phenotype (%) (U2OS [4]; 48 h, 1 µM) was 20% and 29%, the Population Mitotic Cells (%) (U2OS [4]; 48 h, 1 µM) was 50% and 42% and the Population Normal (%) (U2OS [4]; 48 h, 1 µM) was 91% and 93%. The Population Tubulin-Different-Phenotype (%) (U2OS [4]; 48 h, 1 µM) was 23% and 31%, the Total Cell Count (U2OS [4]; 48 h, 1 µM) was 110 and 208 and the Population Fragmented Nuclei (%) (U2OS [4]; 48 h, 10 µM) was 22% and 17%. For the same compound, the Population Hoechst High Intensity Objects (%) (U2OS [4]; 48 h, 10 µM) was 5% and 3%, the Population Mitochondria Different-Phenotype (%) (U2OS [4]; 48 h, 10 µM) was 100% and 97% and the Population Normal (%) (U2OS [4]; 48 h, 10 µM) was 95% and 96%. For the same compound, the Population Pyknosed Nuclei (%) (U2OS [4]; 48 h, 10 µM) was 47% and 25% and the Population Tubulin-Different-Phenotype (%) (U2OS [4]; 48 h, 10 µM) was 100% and 95%.
